This note sets out measurements from ChEMBL document CHEMBL4665659, “Utilizing comprehensive and mini-kinome panels to optimize the selectivity of quinoline inhibitors for cyclin G associated kinase (GAK)” (Bioorg Med Chem Lett, 2019).

The structures appear in SMILES notation.

For the assay, the target named is T1, Cyclin-G-associated kinase (Homo sapiens, UniProt O14976).
T1 sequence (O14976 whole entry): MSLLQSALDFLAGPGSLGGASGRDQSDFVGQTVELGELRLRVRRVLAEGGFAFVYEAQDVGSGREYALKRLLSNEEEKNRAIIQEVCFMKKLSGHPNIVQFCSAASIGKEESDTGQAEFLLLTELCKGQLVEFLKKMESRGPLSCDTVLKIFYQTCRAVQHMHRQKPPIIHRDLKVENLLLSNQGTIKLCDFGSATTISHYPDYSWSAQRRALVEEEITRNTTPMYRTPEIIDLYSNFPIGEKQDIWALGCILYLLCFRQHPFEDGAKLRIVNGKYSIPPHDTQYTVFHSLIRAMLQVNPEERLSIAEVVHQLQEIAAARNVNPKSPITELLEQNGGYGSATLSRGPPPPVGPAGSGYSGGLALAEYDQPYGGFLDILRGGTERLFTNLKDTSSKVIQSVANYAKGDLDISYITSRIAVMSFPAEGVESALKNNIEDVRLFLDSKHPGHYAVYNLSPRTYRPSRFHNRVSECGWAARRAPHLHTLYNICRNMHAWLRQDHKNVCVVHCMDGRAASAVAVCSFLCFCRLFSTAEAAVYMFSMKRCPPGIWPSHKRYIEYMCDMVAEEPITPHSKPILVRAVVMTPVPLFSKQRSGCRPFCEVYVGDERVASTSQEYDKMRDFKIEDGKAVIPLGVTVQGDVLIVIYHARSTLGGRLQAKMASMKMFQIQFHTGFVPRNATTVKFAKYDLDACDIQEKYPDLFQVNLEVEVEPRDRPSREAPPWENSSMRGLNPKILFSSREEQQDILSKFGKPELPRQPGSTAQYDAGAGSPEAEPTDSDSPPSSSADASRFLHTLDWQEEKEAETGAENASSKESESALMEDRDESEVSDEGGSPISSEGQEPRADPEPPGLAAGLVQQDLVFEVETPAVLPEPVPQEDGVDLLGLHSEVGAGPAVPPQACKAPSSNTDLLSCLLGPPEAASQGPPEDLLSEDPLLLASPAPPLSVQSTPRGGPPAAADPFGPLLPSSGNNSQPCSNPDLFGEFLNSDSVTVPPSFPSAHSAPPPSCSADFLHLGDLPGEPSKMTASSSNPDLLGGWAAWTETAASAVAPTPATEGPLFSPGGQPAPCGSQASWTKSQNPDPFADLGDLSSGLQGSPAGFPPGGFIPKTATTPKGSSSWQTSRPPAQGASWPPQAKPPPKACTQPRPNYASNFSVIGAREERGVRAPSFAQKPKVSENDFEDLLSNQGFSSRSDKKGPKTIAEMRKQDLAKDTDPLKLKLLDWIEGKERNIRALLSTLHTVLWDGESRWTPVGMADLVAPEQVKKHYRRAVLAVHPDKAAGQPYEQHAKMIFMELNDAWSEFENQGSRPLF
The assay can be described thus: Binding affinity to human wild type partial length GAK (G13 to Y338 residues) expressed in bacterial expression system by KinomeScan method.

What is called Kd is the free concentration of one partner at which half of the binding sites on the other are occupied at equilibrium, for simple one-to-one binding. On to `COc1cc(Nc2ccnc3ccc(Br)cc23)cc(OC)c1OC`, for which the dissociation constant (Kd) came to 4.1 nM.
